Results published in BindingDB's records for doi:10.1016/0028-3908(93)90181-2 (Boots Pharmaceuticals, 1993).

Sequences of proteins named here, by UniProt entry; tags and fusion partners are left off.
UniProt P31652, whole entry: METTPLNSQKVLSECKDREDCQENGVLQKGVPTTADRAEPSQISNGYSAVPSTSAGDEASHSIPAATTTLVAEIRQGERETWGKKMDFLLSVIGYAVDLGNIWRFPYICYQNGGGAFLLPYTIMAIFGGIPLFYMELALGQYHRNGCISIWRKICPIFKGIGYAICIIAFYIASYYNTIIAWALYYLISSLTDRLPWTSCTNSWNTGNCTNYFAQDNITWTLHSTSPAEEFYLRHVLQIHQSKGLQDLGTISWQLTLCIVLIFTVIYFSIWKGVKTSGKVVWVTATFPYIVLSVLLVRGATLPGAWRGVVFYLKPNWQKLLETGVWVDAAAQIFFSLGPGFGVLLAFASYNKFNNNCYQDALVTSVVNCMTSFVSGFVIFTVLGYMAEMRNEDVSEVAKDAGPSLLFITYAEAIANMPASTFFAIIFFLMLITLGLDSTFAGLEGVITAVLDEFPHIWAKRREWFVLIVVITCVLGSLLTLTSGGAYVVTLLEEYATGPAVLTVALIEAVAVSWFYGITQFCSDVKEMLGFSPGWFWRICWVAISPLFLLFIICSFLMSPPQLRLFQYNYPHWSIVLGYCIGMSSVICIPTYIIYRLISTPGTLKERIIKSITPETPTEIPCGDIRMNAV

Target: Sodium-dependent serotonin transporter (Rattus norvegicus, UniProt P31652)

SMILES	Ki [nM]
N[C@H]1CC[C@@H](c2ccc(Cl)c(Cl)c2)c2ccccc21	2.29
CNCCC=C1c2ccccc2CSc2ccccc21 [CAS_1154-09-2]	130
CC(C)CC(N(C)C)C1(c2ccc(Cl)cc2)CCC1 (centres undefined) [CAS_106650-56-0]	2140
CC(C)CC(N)C1(c2ccc(Cl)cc2)CCC1 (centres undefined) [NSC_134771]	18
